Experimental data published in paper PMC3091868, “A Novel Structural Framework for α1A/D-Adrenoceptor Selective Antagonists Identified Using Subtype Selective Pharmacophores” (PLoS ONE, 2011).

Sequences of proteins named here, by UniProt entry; tags and fusion partners are left off.
UniProt P18841, whole entry: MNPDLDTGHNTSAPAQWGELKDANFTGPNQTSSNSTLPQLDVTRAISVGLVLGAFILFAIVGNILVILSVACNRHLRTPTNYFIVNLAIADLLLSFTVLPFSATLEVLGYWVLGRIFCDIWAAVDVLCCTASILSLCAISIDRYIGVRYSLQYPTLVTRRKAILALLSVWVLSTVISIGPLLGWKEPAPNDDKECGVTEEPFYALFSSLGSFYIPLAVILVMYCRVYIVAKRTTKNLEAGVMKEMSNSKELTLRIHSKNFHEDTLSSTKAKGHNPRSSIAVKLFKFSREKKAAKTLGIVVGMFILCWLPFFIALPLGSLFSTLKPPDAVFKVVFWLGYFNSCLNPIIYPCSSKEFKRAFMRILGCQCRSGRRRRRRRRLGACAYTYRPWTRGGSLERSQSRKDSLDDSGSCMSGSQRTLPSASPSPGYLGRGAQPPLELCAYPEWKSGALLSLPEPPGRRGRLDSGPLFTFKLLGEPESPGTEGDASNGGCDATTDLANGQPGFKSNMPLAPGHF
UniProt P23944, whole entry: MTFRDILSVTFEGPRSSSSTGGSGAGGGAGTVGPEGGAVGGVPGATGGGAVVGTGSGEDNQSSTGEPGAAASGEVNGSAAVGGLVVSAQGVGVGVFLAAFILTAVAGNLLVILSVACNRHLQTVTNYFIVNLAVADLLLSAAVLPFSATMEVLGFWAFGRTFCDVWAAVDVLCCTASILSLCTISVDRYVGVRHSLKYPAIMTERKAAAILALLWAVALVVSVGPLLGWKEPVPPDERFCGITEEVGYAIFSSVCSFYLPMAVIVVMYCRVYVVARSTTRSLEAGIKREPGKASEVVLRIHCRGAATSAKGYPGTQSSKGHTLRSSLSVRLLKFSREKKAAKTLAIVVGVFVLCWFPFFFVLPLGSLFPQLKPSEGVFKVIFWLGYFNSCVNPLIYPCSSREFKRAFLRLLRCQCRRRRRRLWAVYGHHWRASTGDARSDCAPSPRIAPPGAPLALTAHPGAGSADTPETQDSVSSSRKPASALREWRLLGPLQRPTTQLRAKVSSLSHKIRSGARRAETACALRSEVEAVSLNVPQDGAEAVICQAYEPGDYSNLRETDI

Tests used:
Set-up in all cases: species or system rodent
Settings in all cases: saturation binding, membrane-expressed receptor, n = 3–4
α1A-AR = target: T1, α1A-AR (Rattus norvegicus, UniProt P43140); test: [3H]Prazosin competition/saturation binding on COS-1 membranes expressing α1A-AR
T1 construct: expressed in transfected cells; host or cells: COS-1
T1 sequence (P43140 1-466): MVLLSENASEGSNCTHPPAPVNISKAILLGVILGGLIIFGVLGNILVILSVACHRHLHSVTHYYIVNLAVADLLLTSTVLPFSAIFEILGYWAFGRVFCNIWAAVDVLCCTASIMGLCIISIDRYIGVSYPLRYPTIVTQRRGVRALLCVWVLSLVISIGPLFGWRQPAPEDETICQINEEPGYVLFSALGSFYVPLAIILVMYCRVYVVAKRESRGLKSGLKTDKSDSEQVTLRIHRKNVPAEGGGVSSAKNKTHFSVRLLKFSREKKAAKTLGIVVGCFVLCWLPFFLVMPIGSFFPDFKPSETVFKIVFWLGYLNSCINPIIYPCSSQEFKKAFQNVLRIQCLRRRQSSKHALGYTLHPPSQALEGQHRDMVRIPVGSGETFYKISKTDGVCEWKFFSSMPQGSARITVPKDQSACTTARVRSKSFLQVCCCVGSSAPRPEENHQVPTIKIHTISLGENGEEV
Experimental: (§1) COS-1 cells (American Type Culture Collection, Manassas, VA) were cultured in Dulbecco's modified Eagle's medium (DMEM) supplemented with 10% (v/v) heat inactivated fetal bovine serum (FBS), 100 µg ml^−1 penicillin and 100 µg ml^−1 streptomycin. Cells were maintained and passaged upon reaching confluence by standard cell culture techniques. pMT4 plasmids containing rodent α1-AR (a kind gift from Prof R Graham, Victor Chang Cardiac Research Institute, Australia) were used to transfect cells. Transient expression in COS-1 cells was accomplished using two techniques; the diethylaminoethane-dextran (DEAE-dextran) and Lipofectamine 2000 (Invitrogen, Carlsbad, CA, USA) methods. Briefly, the DEAE-dextran method involved washing of cells with phosphate buffered saline (PBS), followed by the addition of the DNA mixture (12–25 µg/4×10^6 cells) in DEAE-dextran (10 mg ml^−1) to cells at 60–80% confluency. Following a 3 h incubation, a PBS wash with 10% DMSO was used to shock the cells. Cells were harvested 72 h post transfection. For the Lipofectamine 2000 method, cells were incubated for 12 h with Opti-MEM (GIBCO BRL, Gaithersburg, MD, USA) containing Lipofectamine 2000.
(§2) Membranes were prepared as described previously. Briefly, COS-1 cells were transiently transfected using the DEAE-dextran method. […] Protein concentration was determined using Bradford reagent (Sigma, St Louis, MO, USA). […]

α1B-AR = target: T2, α1B-AR (Mesocricetus auratus, UniProt P18841); test: [3H]Prazosin competition/saturation binding on COS-1 membranes expressing α1B-AR
T2 construct: expressed in transfected cells; host or cells: COS-1
Experimental: as §1, §2

α1D-AR = target: T3, α1D-AR (Rattus norvegicus, UniProt P23944); test: [3H]Prazosin competition/saturation binding on COS-1 membranes expressing α1D-AR
T3 construct: expressed in transfected cells; host or cells: COS-1
Experimental: as §1, §2

Kd (α1A-AR): 0.275 ± 0.059 nM | Kd (α1B-AR): 0.2 ± 0.046 nM | Kd (α1D-AR): 0.153 ± 0.033 nM
Substance: [^3H]Prazosin [reference compound]
